The target of one experiment is rat FAAH (Rattus norvegicus (Rat), UniProt P97612). In words: Assay Method 3: FAAH assay, cells transfected with rat FAAH. The format is biochemical. Particulars: T84 or rat FAAH-transfected SK-N-MC cell homogenate, 3H-AEA tracer 80 nM, 1 h at rt. On the procedure: Assay Method 3 A. Transfection of Cells with Rat FAAH
(§1) A 10-cm tissue culture dish with a confluent monolayer of SK-N-MC cells was split 2 days (d) prior to transfection. Using sterile technique, the media was removed and the cells were detached from the dish by the addition of trypsin. One fifth of the cells were then placed onto a new 10-cm dish. Cells were grown in a 37° C. incubator with 5% CO2 in Minimal Essential Media Eagle with 10% Fetal Bovine Serum. After 2 d, cells were approximately 80% confluent. These cells were removed from the dish with trypsin and pelleted in a clinical centrifuge. The pellet was re-suspended in 400 μL complete media and transferred to an electroporation cuvette with a 0.4 cm gap between the electrodes. Supercoiled rat FAAH cDNA (1 μg) was added to the cells and mixed. The voltage for the electroporation was set at 0.25 kV, and the capacitance was set at 960 μF. After electroporation, the cells were diluted into complete media (10 mL) and plated onto four 10-cm dishes. Because of the variability in the efficiency of electroporation, four different concentrations of cells were plated. The ratios used were 1:20, 1:10, and 1:5, with the remainder of the cells being added to the fourth dish. […] After 10 d, dishes were analyzed for surviving colonies of cells. […]

Protein sequences, listed by entry. Tags and fused reporters are not part of them.
UniProt P97612, whole entry: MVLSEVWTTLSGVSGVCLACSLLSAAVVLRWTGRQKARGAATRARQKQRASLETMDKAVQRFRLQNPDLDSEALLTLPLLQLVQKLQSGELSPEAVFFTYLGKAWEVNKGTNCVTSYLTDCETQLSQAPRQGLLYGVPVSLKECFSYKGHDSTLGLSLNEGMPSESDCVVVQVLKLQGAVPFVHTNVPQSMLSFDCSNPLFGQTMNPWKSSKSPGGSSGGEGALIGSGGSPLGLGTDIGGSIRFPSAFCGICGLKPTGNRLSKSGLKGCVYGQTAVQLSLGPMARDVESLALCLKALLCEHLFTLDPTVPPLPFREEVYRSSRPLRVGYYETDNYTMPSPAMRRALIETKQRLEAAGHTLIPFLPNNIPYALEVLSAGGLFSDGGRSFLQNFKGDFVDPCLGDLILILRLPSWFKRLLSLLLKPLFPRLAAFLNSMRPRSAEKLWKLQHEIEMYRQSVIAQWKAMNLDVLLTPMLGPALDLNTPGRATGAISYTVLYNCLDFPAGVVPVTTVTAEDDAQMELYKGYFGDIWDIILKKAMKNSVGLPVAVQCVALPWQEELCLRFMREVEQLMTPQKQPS
UniProt O00519, whole entry: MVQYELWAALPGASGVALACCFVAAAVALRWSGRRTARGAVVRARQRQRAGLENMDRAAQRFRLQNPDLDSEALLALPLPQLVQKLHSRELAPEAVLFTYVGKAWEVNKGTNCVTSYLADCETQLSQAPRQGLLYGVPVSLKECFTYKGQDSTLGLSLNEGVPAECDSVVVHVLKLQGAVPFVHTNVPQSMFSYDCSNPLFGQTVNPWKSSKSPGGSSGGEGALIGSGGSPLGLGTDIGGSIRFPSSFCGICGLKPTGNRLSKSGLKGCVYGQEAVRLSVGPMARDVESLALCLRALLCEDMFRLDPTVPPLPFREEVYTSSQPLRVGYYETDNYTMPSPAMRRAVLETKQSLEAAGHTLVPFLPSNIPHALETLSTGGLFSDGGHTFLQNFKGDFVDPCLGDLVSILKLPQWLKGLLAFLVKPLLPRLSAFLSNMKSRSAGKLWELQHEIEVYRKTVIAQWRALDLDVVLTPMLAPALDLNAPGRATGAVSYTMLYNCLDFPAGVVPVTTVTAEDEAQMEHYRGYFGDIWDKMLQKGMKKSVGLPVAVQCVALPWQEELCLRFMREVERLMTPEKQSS

The next experiment concerns the target FAAH (Homo sapiens (Human), UniProt O00519). Nature of the experiment: Assay Method 2: FAAH assay, cells transfected with human FAAH. The format is biochemical. To be noted: T84 or human FAAH-transfected SK-N-MC cell homogenate, 3H-AEA tracer 80 nM, 1 h at rt. On the procedure: Assay Method 2 A. Transfection of Cells with Human FAAH
as §1, with “Supercoiled human” for “Supercoiled rat”, “([…])” for “(1 μg)”

Regarding `O=C(Nc1cccnc1)N1CCN(Cc2ccc3c(c2)OC(F)(F)O3)CC1` [Example 150, 4-(2,2-Difluoro-benzo[1,3]dioxol-5-ylmethyl)-piperazine-1-carboxylic acid pyridin-3-ylamide], the results for the IC50 against rat FAAH and at FAAH were 0.29 µM and 0.13 µM, respectively.

One may read the IC50 as the point on the concentration scale where inhibition reaches its midpoint. The low end stands for higher potency, the high end for lower potency.

Source of the values: patent US9169224B2, “Piperazinyl and piperidinyl ureas as modulators of fatty acid amide hydrolase” (Janssen Pharmaceutica NV, priority 2004, dated 2015).
